Source: patent US20230265065A1 (WEST VIRGINIA UNIVERSITY BOARD OF GOVERNORS ON BEHALF OF …, priority 2020, published 2023)
Where two headings read alike, the source gives them in different places.

The chains behind the UniProt entries cited, without tags or fusion partners. Residues count along the entry.
UniProt P23468, 21-1912 limits assumed: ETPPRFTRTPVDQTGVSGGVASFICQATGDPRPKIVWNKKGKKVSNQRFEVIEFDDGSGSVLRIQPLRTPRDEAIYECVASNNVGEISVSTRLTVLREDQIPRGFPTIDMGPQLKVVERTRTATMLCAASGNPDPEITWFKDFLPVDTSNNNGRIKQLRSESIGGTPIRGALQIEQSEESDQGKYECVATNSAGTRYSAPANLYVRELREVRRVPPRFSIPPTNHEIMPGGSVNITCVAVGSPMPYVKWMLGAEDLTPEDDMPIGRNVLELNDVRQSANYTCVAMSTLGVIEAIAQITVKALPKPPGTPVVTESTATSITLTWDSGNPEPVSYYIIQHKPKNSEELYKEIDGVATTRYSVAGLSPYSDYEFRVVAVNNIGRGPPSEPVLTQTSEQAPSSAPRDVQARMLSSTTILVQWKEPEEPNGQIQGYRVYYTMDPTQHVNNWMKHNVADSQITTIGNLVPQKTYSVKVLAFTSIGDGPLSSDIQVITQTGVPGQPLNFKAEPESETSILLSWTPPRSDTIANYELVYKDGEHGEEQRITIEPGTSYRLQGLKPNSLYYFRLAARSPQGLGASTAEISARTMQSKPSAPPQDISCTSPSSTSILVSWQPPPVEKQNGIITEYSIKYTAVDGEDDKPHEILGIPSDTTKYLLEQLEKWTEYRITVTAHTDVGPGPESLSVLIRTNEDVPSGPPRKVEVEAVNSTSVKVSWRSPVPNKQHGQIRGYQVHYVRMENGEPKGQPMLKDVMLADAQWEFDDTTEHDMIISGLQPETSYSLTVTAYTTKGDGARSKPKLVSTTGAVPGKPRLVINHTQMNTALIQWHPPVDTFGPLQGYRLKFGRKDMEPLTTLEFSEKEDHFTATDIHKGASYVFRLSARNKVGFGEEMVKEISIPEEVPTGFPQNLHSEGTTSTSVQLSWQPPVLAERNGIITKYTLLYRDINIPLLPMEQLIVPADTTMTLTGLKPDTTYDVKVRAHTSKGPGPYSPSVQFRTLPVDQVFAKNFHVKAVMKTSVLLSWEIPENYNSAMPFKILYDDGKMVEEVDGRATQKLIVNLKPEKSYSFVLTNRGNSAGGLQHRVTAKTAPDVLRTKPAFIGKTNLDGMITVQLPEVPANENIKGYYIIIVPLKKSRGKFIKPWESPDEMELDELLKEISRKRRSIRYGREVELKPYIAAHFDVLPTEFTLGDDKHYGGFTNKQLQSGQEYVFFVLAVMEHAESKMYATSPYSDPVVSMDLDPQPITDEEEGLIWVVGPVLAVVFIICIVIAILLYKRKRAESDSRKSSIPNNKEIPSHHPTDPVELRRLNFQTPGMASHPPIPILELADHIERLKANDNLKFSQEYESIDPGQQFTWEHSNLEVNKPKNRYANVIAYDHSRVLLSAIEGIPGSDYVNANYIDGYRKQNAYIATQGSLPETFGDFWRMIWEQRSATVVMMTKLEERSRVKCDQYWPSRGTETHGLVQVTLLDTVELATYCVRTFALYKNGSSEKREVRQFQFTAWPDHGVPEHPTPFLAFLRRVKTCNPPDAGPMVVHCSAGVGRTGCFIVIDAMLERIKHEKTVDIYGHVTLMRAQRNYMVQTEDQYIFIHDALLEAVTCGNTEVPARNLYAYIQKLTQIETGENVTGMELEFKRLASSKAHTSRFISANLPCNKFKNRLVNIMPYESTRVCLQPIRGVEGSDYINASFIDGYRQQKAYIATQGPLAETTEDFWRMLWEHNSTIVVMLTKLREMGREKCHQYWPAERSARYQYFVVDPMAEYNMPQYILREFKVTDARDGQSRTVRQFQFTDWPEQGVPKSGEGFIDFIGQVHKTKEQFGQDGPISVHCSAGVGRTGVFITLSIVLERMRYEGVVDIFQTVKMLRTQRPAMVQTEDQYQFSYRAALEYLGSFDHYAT
UniProt P23468, 1357-1612 limits assumed: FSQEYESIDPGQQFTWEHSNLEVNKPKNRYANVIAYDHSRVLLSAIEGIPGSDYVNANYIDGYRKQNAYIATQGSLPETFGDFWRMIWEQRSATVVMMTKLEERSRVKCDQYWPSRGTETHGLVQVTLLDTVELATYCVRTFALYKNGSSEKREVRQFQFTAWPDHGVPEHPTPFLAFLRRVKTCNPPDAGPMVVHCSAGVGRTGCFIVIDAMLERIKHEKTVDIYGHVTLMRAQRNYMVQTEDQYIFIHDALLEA

Columns and labels:
Ptprd knockout mice = settings: cited from earlier work
PTPRD [1] = target: T1, PTPRD (Homo sapiens, UniProt P23468); settings: read-out: prior estimate of IC50 (PTPRD); in vitro, prior estimate (ref 14); cited from earlier work
[2] = cited from earlier work
wild-type mice = settings: cited from earlier work
LAR-PTPs = assay: Preliminary LAR-PTP inhibition assay at pH 6.5; settings: pH 6.5, 100 μM compound, 30 min preincubation
PTPRD [3] = target: T1, PTPRD; assay: PTPRD inhibitor screen and IC50 at pH 7.5 and 37° C.; settings: read-out: IC50 (PTPRD)

SMILES: CCCCOc1cc2c(c(C=O)c1OC)CC(O)OC2=O (stereo not shown)
- cocaine conditioned place preference and self-administration (Ptprd knockout mice): but not in the Ptprd knockout mice
- IC50 (PTPRD [1]): 1 to 3 µM
- stability in aqueous DMSO [2]: stability concerns
- cocaine reward in mice (wild-type mice; mice, linked to PTPR^δ inhibition): reduce the cocaine reward in mice
- cocaine conditioned place preference and self-administration (wild-type mice; wild-type mice): reduces cocaine conditioned place preference and self-administration
- LAR-PTP inhibitory activity (LAR-PTPs): inhibits LAR and PTPR^1 more potently than PTPR^δ
- IC50 (PTPRD [3]): 2 µM
